Source: patent US12559750B2, “Methods and compositions for treatment of polycystic kidney disease” (Regulus Therapeutics Inc., priority 2021, dated 2026)

Experiment: Metabolism of RG-NG-1015 in vitro and in vivo (HPLC-TOF)
Conditions: kidney and liver lysates, serum (mouse, monkey, human); CD-1 mice and monkeys in vivo; in words

In the case of ASGSCMAFCFUFUMUSAS [RG-NG-1015], the metabolism is reported as “undergoes sequential hydrolysis from both 3′ and 5′ ends to produce chain-shortened metabolites”.
